Results taken from patent US20040121946A9, “Inducing cellular immune responses to her2/neu using peptide and nucleic acid compositions” (priority 2002, published 2004).
Values belong to the compound of their own block, whether it stands above or below them.

The chains behind the UniProt entries cited, without tags or fusion partners. Where a name states a change or a piece, a line headed by the entry shows the natural chain unless it says otherwise.
UniProt P04439: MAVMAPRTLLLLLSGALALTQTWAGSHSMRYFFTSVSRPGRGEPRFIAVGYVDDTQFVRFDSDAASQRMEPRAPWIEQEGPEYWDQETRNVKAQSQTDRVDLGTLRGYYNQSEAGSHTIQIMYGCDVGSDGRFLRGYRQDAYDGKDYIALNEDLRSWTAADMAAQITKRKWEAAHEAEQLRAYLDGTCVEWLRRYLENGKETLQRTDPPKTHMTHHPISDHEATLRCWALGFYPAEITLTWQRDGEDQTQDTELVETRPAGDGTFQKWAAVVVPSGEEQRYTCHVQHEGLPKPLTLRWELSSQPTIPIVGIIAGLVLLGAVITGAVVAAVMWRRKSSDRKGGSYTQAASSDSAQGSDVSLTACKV

Legend:
[1] = molecular target: HLA-A*0201 (Homo sapiens, UniProt P04439, D140Y/D185E/D98H/E176V/E277Q/G131W/G231S/I119V/I121R/I166T/I218V/L300P/L318F/N151K/N90K/P208A/P217A/Q86G/Q94H/R138H/R169H/T345S); type: binding
[2] = system: tumor targets that endogenously express HER2/neu (colon adenocarcinoma cell lines SW403 and HT-29); assay: Primary in vitro CTL induction, recognition of wild-type peptide and endogenous tumor targets (51Cr release / in situ IFNγ ELISA); type: cell-based, human; conditions: number of donors yielding a positive response/total tested; normal donors
[3] = molecular target: HLA-A*3301 (Homo sapiens, UniProt P04439, A270S/D185E/E176V/E277Q/E87N/F33T/G231S/H175R/I121M/I218V/I322F/K168Q/K210R/L300P/L318F/M331R/P217A/Q86R/Q94H/R138Q/T323A/T345S/T97I/V358M/Y195H); type: binding; conditions: Table XXIII, HLA-A3 supermotif-bearing peptides

Compound: CC(C)C[C@H](NC(=O)[C@H](CCC(N)=O)NC(=O)[C@@H](NC(=O)[C@@H](NC(=O)[C@H](CO)NC(=O)[C@@H](NC(=O)[C@H](CC(C)C)NC(=O)[C@@H](N)CS)[C@@H](C)O)[C@@H](C)O)C(C)C)C(=O)N[C@H](C(=O)O)C(C)C
IC50 [1]: 0.208 µM

Compound: CC[C@H](C)[C@H](NC(=O)[C@@H](N)CCCCN)C(=O)N[C@@H](Cc1ccccc1)C(=O)NCC(=O)N[C@@H](CO)C(=O)N[C@@H](CC(C)C)C(=O)N[C@@H](C)C(=O)N[C@@H](Cc1ccccc1)C(=O)N[C@@H](CC(C)C)C(=O)O
CTL Tumor [2]: 4/7
CTL Wildtype [2]: 6/7

IC50 [3]: > 10 µM
Compound: CC[C@H](C)[C@H](NC(=O)CNC(=O)[C@H](Cc1ccccc1)NC(=O)[C@@H](NC(=O)[C@@H](N)C(C)C)C(C)C)C(=O)N[C@@H](CC(C)C)C(=O)N[C@H](C(=O)N[C@@H](CCCCN)C(=O)N[C@@H](CCCCN)C(=O)O)[C@@H](C)CC [Her2/neu.669.K9]
